Source: patent EP4825859A1, “DEUTERATED HETEROCYCLIC COMPOUND ACTING AS PDE4B INHIBITOR AND USE THEREOF” (dated 2026)

Amino acid sequences for entries named in this document (tags omitted). Chains listed by the source or under a name are the forms on record and can include a tag or linker. Residues count along the entry.
UniProt Q07343, 1-564 with tags or gaps: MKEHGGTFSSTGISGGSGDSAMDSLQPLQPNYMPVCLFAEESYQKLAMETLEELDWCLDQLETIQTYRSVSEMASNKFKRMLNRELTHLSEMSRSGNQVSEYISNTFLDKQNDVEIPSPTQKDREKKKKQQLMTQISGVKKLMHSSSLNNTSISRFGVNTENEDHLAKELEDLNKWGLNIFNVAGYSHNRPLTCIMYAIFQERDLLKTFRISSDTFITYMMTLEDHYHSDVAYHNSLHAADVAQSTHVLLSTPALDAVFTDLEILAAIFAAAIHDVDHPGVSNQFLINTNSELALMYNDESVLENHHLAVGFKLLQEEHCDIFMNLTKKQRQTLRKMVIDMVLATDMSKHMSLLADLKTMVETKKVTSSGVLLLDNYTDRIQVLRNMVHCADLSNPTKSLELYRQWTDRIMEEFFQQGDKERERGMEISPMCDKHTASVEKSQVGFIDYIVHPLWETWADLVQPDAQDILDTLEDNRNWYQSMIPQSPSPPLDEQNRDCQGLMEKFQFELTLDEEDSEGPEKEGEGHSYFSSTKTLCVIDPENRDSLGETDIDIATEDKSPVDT
UniProt Q08499, 303-809 limits assumed: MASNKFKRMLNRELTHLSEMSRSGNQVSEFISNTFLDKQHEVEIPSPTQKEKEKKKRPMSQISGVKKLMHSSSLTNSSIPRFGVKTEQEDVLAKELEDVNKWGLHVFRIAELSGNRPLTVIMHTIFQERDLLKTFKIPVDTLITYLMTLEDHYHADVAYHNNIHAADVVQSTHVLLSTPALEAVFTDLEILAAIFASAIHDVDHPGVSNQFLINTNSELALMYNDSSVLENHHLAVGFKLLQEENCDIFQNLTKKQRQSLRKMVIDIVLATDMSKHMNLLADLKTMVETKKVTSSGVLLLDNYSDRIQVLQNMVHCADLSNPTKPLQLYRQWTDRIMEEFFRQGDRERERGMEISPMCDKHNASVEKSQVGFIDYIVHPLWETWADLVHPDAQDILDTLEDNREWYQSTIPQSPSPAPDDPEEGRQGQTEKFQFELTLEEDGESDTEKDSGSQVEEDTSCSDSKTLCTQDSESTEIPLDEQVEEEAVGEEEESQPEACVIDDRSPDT

Columns and labels:
human HepG2 cells = assay: In vitro toxicity evaluation on human HepG2 cells (CTG); conditions: read-out: IC50 on HepG2 cells; 72 hours incubation, CTG luminescence
Experimental: HepG2 cells in a logarithmic growth phase were trypsinized and resuspended in MEM complete medium containing 10% FBS. 10,000 cells were seeded in each well of a 96-well plate (no cells were seeded in the blank control group) with a seeding volume of 100 µL/well. The plates were incubated at 37°C in a CO2 incubator for 24 hours.
The test compounds were prepared as 50 mM stock solutions in DMSO, serially diluted to appropriate concentrations in DMSO, and further 3-fold serially diluted with cell culture medium to obtain 2× working solutions. 100 µL of the test compound working solution was added to the corresponding wells of the 96-well plate (n=2). Meanwhile, a blank control group (cell culture medium containing 0.5% DMSO) and a DMSO control group (cell culture medium containing 0.5% DMSO) were set. After the plate was incubated at 37°C in a CO2 incubator for 72 hours, 100 µL of the supernatant was aspirated from each well and discarded. Then, 50 µL of CTG (Promega, G9243) was added to each well. The plate was shaken on a microplate shaker for 5 minutes, allowed to stand for 10 min, and the luminescence value was read using a microplate reader. The inhibition rate of the test compounds on the human HepG2 cells was calculated, and the IC50 values of the compound on human HepG2 cells were fitted based on the inhibition rate of the compound at different concentrations. Inhibition rate=100%-(test compound-blank control group)/(DMSO group-blank control group) × 100%. Table 4. In vitro Toxicity Evaluation Results of Compounds on HepG2 cells

[1] = Pharmacokinetic study in cynomolgus monkeys, oral gavage; conditions: oral gavage 10 mg/kg; for AUC0-t / CL/F / Cmax: plasma
Experimental: For the pharmacokinetic study in monkeys, male cynomolgus monkeys weighing 5 kg to 7 kg were used and fasted overnight. Three cynomolgus monkeys were administered with the compound via oral gavage at 10 mg/kg. Blood samples were collected before the administration, and 15 minutes, 30 minutes, 1 hour, 2 hours, 4 hours, 8 hours, and 24 hours after the administration. Whole blood samples were placed in EDTA K2 tubes for anticoagulation, and then centrifuged (at 1,500 g to 1,600 g) at 4°C for 10 minutes to separate plasma. All the samples were stored at -80°C until analysis. 20 µL of plasma collected at each time point was mixed with 400 µL of acetonitrile-methanol solution containing internal standard. After vortex mixing, the mixture was centrifuged at 3,700 rpm for 10 minutes. 50 µL of the supernatant was added to 100 µL of water, followed by vortex-mixing. An appropriate amount of the mixed solution was subjected to LC-MS/MS analysis. The main plasma pharmacokinetic parameters were calculated using a noncompartmental model. [Table 3] Pharmacokinetic Results in Cynomolgus Monkeys After Oral Gavage Administration

[2] = Mouse tissue distribution assay; conditions: mice, oral gavage 10 mg/kg
Experimental: For the mouse tissue distribution assay, ICR mice weighing 20 g to 25 g were used and fasted overnight. 8 male mice and 4 female mice were administered via oral gavage at 10 mg/kg. Blood samples as well as tissue samples including stomach, small intestine, and large intestine were collected at 30 minutes, 1 hour, 4 hours, and 8 hours after the administration. Two male mice and one female mouse were used at each time point. Whole blood samples were placed in EDTA-K2 tubes for anticoagulation, and then centrifuged (at 1,500 g to 1,600 g) at 4°C for 10 minutes to separate plasma. All plasma and tissue samples were stored at -80°C until analysis. Compound concentrations in plasma and homogenate samples (stomach, small intestine, and large intestine) from mice were measured by LC-MS/MS, and area under the concentration-time curve and tissue/plasma area under the curve ratio were calculated based on the compound concentrations at different time points. [Table 5] Results of Mouse Tissue Distribution Assay

[3] = system: LPS-induced TNF-α secretion by human PBMCs; assay: Inhibition of LPS-induced TNF-α secretion by human PBMCs (ELISA); conditions: read-out: IC50 for inhibition of LPS-induced TNF-α secretion by human PBMCs; LPS 0.1 µg/mL, 4 hours
Experimental: Fresh blood samples were diluted with an equal volume of PBS (BI, 02-024-01ACS) for later use. 15 mL of Lymphoprep (stem cell, 7851) was added into a 50 mL centrifuge tube, and 30 mL of diluted blood sample was slowly layered onto the Lymphoprep without disturbing the interface. The mixture was centrifuged at 1,000 g for 25 minutes at room temperature with the brake off. The buffy coat containing PBMCs was collected into a new 50 mL centrifuge tube, washed twice with 50 mL of DPBS, and centrifuged at 350 g for 10 minutes. The supernatant was discarded. The cells were resuspended in complete RPMI 1640 medium and adjusted to a density of 1.5×10^6 cells/mL. A 96-well cell culture plate was taken, and 100 µL of the PBMC suspension was added to each well. The test compounds were prepared as 4× working solutions at a series of concentrations using complete RPMI 1640 medium, and 50 µL of the compound working solution was added to the corresponding wells. […] The expression of TNF-α was measured using a Human TNF-α ELISA Kit (Cat: 555212) from BD Biosciences. An inhibition rate of the test compounds on the LPS-induced TNF-α secretion by the human PBMCs was calculated. Based on the inhibition rates at different concentrations of the compounds, IC50 values for the inhibition of the TNF-α secretion by the LPS-stimulated human PBMCs were measured by curve fitting using GraphPad Prism 8 software. […]

PDE4B2 = PDE4B2 (Homo sapiens, UniProt Q07343); assay: Enzyme activity inhibition assay against PDE4B2 (AMP-Glo Assay kit); conditions: read-out: PDE4B2 IC50, 60 minutes at room temperature
Experimental: (§1) Inhibitory activities of the compounds of the present disclosure against PDE4B2 and PDE4D2 can be detected using AMP-Glo™ Assay kit (Promega, V5011). First, all compounds were prepared as stock solution at 20 or 25 mM in DMSO, followed by 3-fold serial dilution in DMSO on a compound plate to obtain 200×working solutions. Meanwhile, 200×Rolipram (2 mM) was prepared as a positive control, and 100% DMSO was served as a blank control. The compound plate was centrifuged at 1,000 rpm for 1 minute. 20 nL of the compound working solution was transferred to a 384-well assay plate (Greiner, 784075) using Echo 550, and the plate was sealed and then centrifuged at 1,000 rpm for 1 minute. PDE4B2 enzyme (BPS bioscience, 60042) and PDE4D2 enzyme (BPS bioscience, 60048) were diluted to 2×working solutions using ice-cold PDE assay buffer. […] AMP was detected using the AMP-Glo™ Assay kit (Promega, V5011): 4 µL of AMP-Glo Reagent I was added to each well of the 384-well assay plate, followed by incubation at room temperature for 60 min; then 8 µL of AMP Detection Reagent was added to each well of the 384-well assay plate, followed by incubation at room temperature for 60 minutes. RLU (relative light unit) signals were read using an Envision 2105 instrument. […] The experimental results were imported into GraphPad Prism software, and the IC50 value of each compound was calculated by curve fitting. […]

PDE4D2 = PDE4D2 (Homo sapiens, UniProt Q08499); assay: Enzyme activity inhibition assay against PDE4D2 (AMP-Glo Assay kit); conditions: read-out: PDE4D2 IC50, 60 minutes at room temperature
Experimental: as §1

[4] = Large Intestine AUC(0-t) / plasma AUC(0-t)
[5] = Small Intestine AUC(0-t) / plasma AUC(0-t)
[6] = Stomach AUC(0-t) / plasma AUC(0-t)

For [2H]C1([2H])C([2H])([2H])C(CO)(Nc2nc(N3CC4(CC(c5ncc(Cl)cn5)C4)C3)nc3c2[S@+]([O-])CC3)C1([2H])[2H], the IC50 (human HepG2 cells) was greater than 200000 nM.

In the case of [O-][S@+]1CCc2nc(N3CC4(CC(c5ncc(Cl)cn5)C4)C3)nc(NC3(CO)CCC3)c21, the AUC0-t [1] is reported as 9,793 h·ng/mL, the CL/F [1] is reported as 1,006 mL/h/kg and the Cmax [1] is reported as 2,061 ng/mL. For the same molecule, the tissue/plasma ratio [2, 4] was 8.44, the “Area under the concentration-time curve AUC(0-t)” value (from here on “Area”) ([2]; Large Intestine) was 105,410 h*ng/g and the “Area” value ([2]; Plasma) was 12,487 h*ng/ml. The tissue/plasma ratio [2, 5] was 4.89, the “Area” value ([2]; Small Intestine) was 61,044 h*ng/g and the tissue/plasma ratio [2, 6] was 17.85. For the same molecule, the “Area” value ([2]; Stomach) was 222,882 h*ng/g and the IC50 [3] was 63.4 nM.

“(R)-2-(6-(5-chloropyrimidin-2-yl)-2-azaspiro[3.3]hept-2-yl)-4-((1-(hydroxymethyl)cyclobutyl -3,3-d2)amino)-6,7-dihydrothieno[3,2-d]pyrimidin-5-oxide” gave an IC50 (human HepG2 cells) greater than 200000 nM.

In the case of [2H]C([2H])(O)C1(Nc2nc(N3CC4(CC(c5ncc(Cl)cn5)C4)C3)nc3c2[S@+]([O-])CC3)CCC1, the IC50 (PDE4B2) is reported as 14.5 nM, the “AUC0-t relative to Control Compound 1” value [1] is reported as “twice” and the AUC0-t [1] is reported as 19,549 h·ng/mL. For the same molecule, the CL/F [1] was 506 mL/h/kg, the Cmax [1] was 2,426 ng/mL and the IC50 (human HepG2 cells) was greater than 200000 nM. The tissue/plasma ratio [2, 4] was 2.66, the “Area” value ([2]; Large Intestine) was 42,506 h*ng/g and the “Area” value ([2]; Plasma) was 15,998 h*ng/ml. For the same molecule, the tissue/plasma ratio [2, 5] was 2.77, the “Area” value ([2]; Small Intestine) was 44,273 h*ng/g and the tissue/plasma ratio [2, 6] was 3.05. For the same molecule, the “Area” value ([2]; Stomach) was 48,722 h*ng/g, the IC50 (PDE4D2) was 45.1 nM and the IC50 [3] was 41.4 nM.

Molecule “(R)-2-(6-(5-chloropyrimidin-2-yl)-2-azaspiro[3.3]hept-2-yl)-4-((1-(hydroxymethyl-d2)cyclobutyl-3,3-d2)amino)-6,7-dihydrothieno[3,2-d]pyrimidin-5-oxide” has an IC50 (human HepG2 cells) greater than 200000 nM.

Molecule [2H]C1C2(CN(c3nc4c(c(NC5(CO)CCC5)n3)[S@+]([O-])CC4)C2)CC1([2H])c1ncc(Cl)cn1 (some centres unmarked) has an IC50 (human HepG2 cells) greater than 200000 nM.

Molecule [2H]C1([2H])C[S@@+]([O-])c2c(NC3(CO)CCC3)nc(N3CC4(CC(c5ncc(Cl)cn5)C4)C3)nc21 has an IC50 (human HepG2 cells) greater than 200000 nM.

In the case of “(R)-2-(6-(5-chloropyrimidin-2-yl)-6-deutero-2-azaspiro[3.3]hept-2-yl)-4-((1-(hydroxymethyl)cyclobutyl -2,2,3,3,4,4-d6)amino)-6,7-dihydrothieno[3,2-d]pyrimidin-5-oxide”, the IC50 (human HepG2 cells) is reported as greater than 200000 nM.
